System: half sulfur mustard-inoculated Balb/c mice
Test: Survival of half sulfur mustard-inoculated mice

| Molecule | effect on mortality of half sulfur mustard-inoculated mice (various oral doses daily for 14 days) | effect on survival of HSM-intoxicated mice (losartan alone, 0.5 nmole/kg) |
| --- | --- | --- |
| des-aspartate-angiotensin I | dose-dependently attenuated the mortality |  |
| CCCCc1nc(Cl)c(CO)n1Cc1ccc(-c2ccccc2-c2nn[nH]n2)cc1 |  | had no effect |
